Measurements as given in paper PMC9706563, “Development of Macrocyclic PRMT5–Adaptor Protein Interaction Inhibitors” (Journal of Medicinal Chemistry, 2022).

Sequences of proteins named here, by UniProt entry; tags and fusion partners are left off.
UniProt O14744, whole entry: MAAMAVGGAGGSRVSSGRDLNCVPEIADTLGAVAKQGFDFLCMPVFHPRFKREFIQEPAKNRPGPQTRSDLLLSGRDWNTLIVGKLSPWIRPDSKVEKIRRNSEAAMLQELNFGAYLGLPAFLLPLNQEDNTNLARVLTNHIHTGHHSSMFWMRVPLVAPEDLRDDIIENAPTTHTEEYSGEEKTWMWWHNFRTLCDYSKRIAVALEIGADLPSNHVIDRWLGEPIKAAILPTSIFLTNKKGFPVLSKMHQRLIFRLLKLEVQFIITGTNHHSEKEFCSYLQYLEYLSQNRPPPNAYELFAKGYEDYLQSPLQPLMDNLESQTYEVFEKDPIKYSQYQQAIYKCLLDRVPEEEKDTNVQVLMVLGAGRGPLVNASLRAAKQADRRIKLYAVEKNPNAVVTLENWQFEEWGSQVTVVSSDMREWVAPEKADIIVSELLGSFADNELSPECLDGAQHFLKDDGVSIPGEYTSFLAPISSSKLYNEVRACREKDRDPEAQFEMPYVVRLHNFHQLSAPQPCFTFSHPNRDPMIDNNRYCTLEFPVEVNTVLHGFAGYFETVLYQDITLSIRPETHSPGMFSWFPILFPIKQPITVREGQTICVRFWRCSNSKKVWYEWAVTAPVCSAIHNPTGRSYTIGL

Molecular target: T1, PRMT5-MEP50 (Homo sapiens, UniProt O14744)
T1 construct: The compounds were tested by means of FP with the full-length PRMT5-MEP50 complex; made in house
Experiment: Direct binding fluorescence polarization (FP) assay of FITC-labeled peptides
Conditions: supplementary CSV

Kd: 1680 ± 920 nM
Compound: CC(=O)N[C@H](C(=O)N1CCC[C@H]1C(=O)N[C@@H]1CC=CCC[C@@H](C(=O)N[C@@H](CC(=O)O)C(=O)N[C@@H](C)C(=O)N[C@@H](CC(=O)O)C(=O)N[C@@H](CCCCNC(=S)Nc2ccc3c(c2)C(=O)OC32c3ccc(O)cc3Oc3cc(O)ccc32)C(N)=O)NC(=O)[C@H](Cc2ccccc2)NC(=O)[C@H](CCC(N)=O)NC1=O)C(C)C (single isomer, unassigned) [18 (isomer 2)]
